The values below come from ChEMBL document CHEMBL1135665, “Synthesis and biological evaluation of 14-alkoxymorphinans. 17. Highly delta opioid receptor selective 14-alkoxy-substituted indolo- and benzofuromorphinans” (J Med Chem, 2002).

By UniProt entry, the sequences of proteins in these tests, tags left out.
UniProt P33535, whole entry: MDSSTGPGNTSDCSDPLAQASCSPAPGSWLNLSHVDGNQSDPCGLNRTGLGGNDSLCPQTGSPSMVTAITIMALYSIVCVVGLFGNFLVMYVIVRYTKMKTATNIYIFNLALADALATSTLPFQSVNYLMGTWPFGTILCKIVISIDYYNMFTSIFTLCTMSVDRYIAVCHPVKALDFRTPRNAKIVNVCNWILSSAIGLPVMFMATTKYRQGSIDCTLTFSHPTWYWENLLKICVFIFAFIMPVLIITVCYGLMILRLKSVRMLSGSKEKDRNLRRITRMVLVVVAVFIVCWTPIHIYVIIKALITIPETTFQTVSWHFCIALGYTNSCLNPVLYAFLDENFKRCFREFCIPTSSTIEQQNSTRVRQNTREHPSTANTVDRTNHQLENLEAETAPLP

The target of the experiment is Mu-type opioid receptor (Rattus norvegicus, UniProt P33535). In words: Binding affinity at mu opioid receptor 1 in rat brain membrane by [3H]DAMGO displacement. Format: cell membranes.

As usually defined, the Ki is the equilibrium dissociation constant of an inhibitor or competing ligand from its target. On to `Oc1ccc2c3c1O[C@H]1c4[nH]c5ccccc5c4C[C@@]4(O)[C@@H](C2)N(CC2CC2)CC[C@]314` [NALTRINDOLE], for which the Ki was 13 nM.
